The values below are quoted from earlier work in patent US7183290B2 (dated 2007).

By UniProt entry, the sequences of proteins in these tests, tags left out. Where a name states a change or a piece, a line headed by the entry shows the natural chain unless it says otherwise.
UniProt P14740: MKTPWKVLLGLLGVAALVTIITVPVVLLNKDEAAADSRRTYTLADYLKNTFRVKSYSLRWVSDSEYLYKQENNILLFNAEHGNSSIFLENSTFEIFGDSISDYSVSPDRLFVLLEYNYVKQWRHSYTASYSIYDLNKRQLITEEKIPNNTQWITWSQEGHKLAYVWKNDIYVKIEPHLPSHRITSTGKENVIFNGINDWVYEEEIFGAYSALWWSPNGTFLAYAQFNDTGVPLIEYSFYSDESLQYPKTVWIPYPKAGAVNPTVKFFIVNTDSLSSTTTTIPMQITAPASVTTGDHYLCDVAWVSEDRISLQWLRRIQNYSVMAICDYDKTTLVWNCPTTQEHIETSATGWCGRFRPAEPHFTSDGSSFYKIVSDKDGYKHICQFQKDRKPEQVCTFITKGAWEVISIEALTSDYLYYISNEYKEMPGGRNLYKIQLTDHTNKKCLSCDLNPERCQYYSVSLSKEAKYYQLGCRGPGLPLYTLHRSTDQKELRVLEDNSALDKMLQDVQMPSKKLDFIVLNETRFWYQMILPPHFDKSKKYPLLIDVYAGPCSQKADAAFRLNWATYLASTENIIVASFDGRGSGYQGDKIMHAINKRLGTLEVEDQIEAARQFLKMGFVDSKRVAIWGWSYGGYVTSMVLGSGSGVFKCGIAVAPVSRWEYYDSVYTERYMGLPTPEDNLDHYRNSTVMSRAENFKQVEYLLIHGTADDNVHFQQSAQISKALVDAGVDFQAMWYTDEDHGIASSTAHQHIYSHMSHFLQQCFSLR

The target in this data set is DPP-IV (Rattus norvegicus, UniProt P14740). The settings on record: obese Zucker rats; Diabetologia 42: 1324–1331.

Consider NVP-DPP728, for which the oral glucose tolerance entry is on record as “improves oral glucose tolerance” and the “plasma GLP-1 (2-36 amide) concentrations” value was “increases plasma GLP-1 (2-36 amide) concentrations”.
